# ± gives the expanded uncertainty stated by the source.
# How the values were obtained:
# [1] = 101.33 kPa, Liquid; for speed of sound: Sing-around technique in a fixed-path interferometer
# [2] = xn = mol fraction of the nth substance listed; conditions: 101 kPa, Liquid
compound,measurement,setting,value
CCCCOCCCC [dibutyl ether],mass density,[1]; 293.15 K,768.468 ± 0.52 kg/m3
same,speed of sound,[1]; 293.15 K,1181.8 ± 0.8 m/s
same,mass density,[1]; 298.15 K,764.17 ± 0.53 kg/m3
same,speed of sound,[1]; 298.15 K,1161.2 ± 0.79 m/s
same,mass density,[1]; 303.15 K,759.829 ± 0.54 kg/m3
same,speed of sound,[1]; 303.15 K,1142.1 ± 0.78 m/s
CCCCOCCCC [dibutyl ether] + CCCCCCCCO,mass density,"[2]; 293.15 K, x2 = 0.1021",774.774 ± 0.51 kg/m3
same,mass density,"[2]; 293.15 K, x2 = 0.1491",777.553 ± 0.51 kg/m3
same,mass density,"[2]; 293.15 K, x2 = 0.1997",780.513 ± 0.51 kg/m3
same,mass density,"[2]; 293.15 K, x2 = 0.2473",783.26 ± 0.51 kg/m3
same,mass density,"[2]; 293.15 K, x2 = 0.2979",786.177 ± 0.51 kg/m3
same,mass density,"[2]; 293.15 K, x2 = 0.3497",789.095 ± 0.51 kg/m3
same,mass density,"[2]; 293.15 K, x2 = 0.4017",792.053 ± 0.51 kg/m3
same,mass density,"[2]; 293.15 K, x2 = 0.4493",794.746 ± 0.51 kg/m3
same,mass density,"[2]; 293.15 K, x2 = 0.4972",797.47 ± 0.51 kg/m3
same,mass density,"[2]; 293.15 K, x2 = 0.5504",800.439 ± 0.51 kg/m3
same,mass density,"[2]; 293.15 K, x2 = 0.6001",803.218 ± 0.51 kg/m3
same,mass density,"[2]; 293.15 K, x2 = 0.6455",805.774 ± 0.52 kg/m3
same,mass density,"[2]; 293.15 K, x2 = 0.6985",808.712 ± 0.52 kg/m3
same,mass density,"[2]; 293.15 K, x2 = 0.7484",811.495 ± 0.52 kg/m3
same,mass density,"[2]; 293.15 K, x2 = 0.7994",814.29 ± 0.52 kg/m3
same,mass density,"[2]; 293.15 K, x2 = 0.8484",816.969 ± 0.52 kg/m3
same,mass density,"[2]; 293.15 K, x2 = 0.9004",819.813 ± 0.53 kg/m3
same,mass density,"[2]; 293.15 K, x2 = 0.949",822.438 ± 0.53 kg/m3
same,mass density,"[2]; 298.15 K, x2 = 0.0511",767.422 ± 0.52 kg/m3
same,mass density,"[2]; 298.15 K, x2 = 0.1005",770.448 ± 0.52 kg/m3
same,mass density,"[2]; 298.15 K, x2 = 0.1486",773.364 ± 0.52 kg/m3
same,mass density,"[2]; 298.15 K, x2 = 0.1998",776.391 ± 0.52 kg/m3
same,mass density,"[2]; 298.15 K, x2 = 0.2458",779.081 ± 0.52 kg/m3
same,mass density,"[2]; 298.15 K, x2 = 0.2978",782.1 ± 0.52 kg/m3
same,mass density,"[2]; 298.15 K, x2 = 0.3497",785.119 ± 0.52 kg/m3
same,mass density,"[2]; 298.15 K, x2 = 0.4009",788.072 ± 0.52 kg/m3
same,mass density,"[2]; 298.15 K, x2 = 0.4475",790.743 ± 0.52 kg/m3
same,mass density,"[2]; 298.15 K, x2 = 0.4956",793.501 ± 0.52 kg/m3
same,mass density,"[2]; 298.15 K, x2 = 0.5441",796.3 ± 0.52 kg/m3
same,mass density,"[2]; 298.15 K, x2 = 0.603",799.619 ± 0.52 kg/m3
same,mass density,"[2]; 298.15 K, x2 = 0.6477",802.183 ± 0.52 kg/m3
same,mass density,"[2]; 298.15 K, x2 = 0.6984",805.007 ± 0.52 kg/m3
same,mass density,"[2]; 298.15 K, x2 = 0.7506",807.961 ± 0.52 kg/m3
same,mass density,"[2]; 298.15 K, x2 = 0.7997",810.704 ± 0.53 kg/m3
same,mass density,"[2]; 298.15 K, x2 = 0.8461",813.276 ± 0.53 kg/m3
same,mass density,"[2]; 298.15 K, x2 = 0.8994",816.228 ± 0.53 kg/m3
same,mass density,"[2]; 298.15 K, x2 = 0.9503",819.023 ± 0.53 kg/m3
same,mass density,"[2]; 303.15 K, x2 = 0.0491",762.975 ± 0.53 kg/m3
same,mass density,"[2]; 303.15 K, x2 = 0.1041",766.404 ± 0.53 kg/m3
same,mass density,"[2]; 303.15 K, x2 = 0.1506",769.248 ± 0.52 kg/m3
same,mass density,"[2]; 303.15 K, x2 = 0.1996",772.204 ± 0.52 kg/m3
same,mass density,"[2]; 303.15 K, x2 = 0.2461",774.957 ± 0.52 kg/m3
same,mass density,"[2]; 303.15 K, x2 = 0.2978",778.044 ± 0.52 kg/m3
same,mass density,"[2]; 303.15 K, x2 = 0.3507",781.141 ± 0.52 kg/m3
same,mass density,"[2]; 303.15 K, x2 = 0.4139",784.859 ± 0.52 kg/m3
same,mass density,"[2]; 303.15 K, x2 = 0.4496",786.924 ± 0.52 kg/m3
same,mass density,"[2]; 303.15 K, x2 = 0.5145",790.697 ± 0.52 kg/m3
same,mass density,"[2]; 303.15 K, x2 = 0.5478",792.645 ± 0.52 kg/m3
same,mass density,"[2]; 303.15 K, x2 = 0.5967",795.447 ± 0.52 kg/m3
same,mass density,"[2]; 303.15 K, x2 = 0.6501",798.548 ± 0.53 kg/m3
same,mass density,"[2]; 303.15 K, x2 = 0.6989",801.324 ± 0.53 kg/m3
same,mass density,"[2]; 303.15 K, x2 = 0.7495",804.196 ± 0.53 kg/m3
same,mass density,"[2]; 303.15 K, x2 = 0.7992",807.033 ± 0.53 kg/m3
same,mass density,"[2]; 303.15 K, x2 = 0.8481",809.788 ± 0.53 kg/m3
same,mass density,"[2]; 303.15 K, x2 = 0.8984",812.611 ± 0.54 kg/m3
same,mass density,"[2]; 303.15 K, x2 = 0.9488",815.417 ± 0.54 kg/m3
